The structures appear in SMILES notation.

The chains behind the UniProt entries cited, without tags or fusion partners.
UniProt Q9UBE0, whole entry: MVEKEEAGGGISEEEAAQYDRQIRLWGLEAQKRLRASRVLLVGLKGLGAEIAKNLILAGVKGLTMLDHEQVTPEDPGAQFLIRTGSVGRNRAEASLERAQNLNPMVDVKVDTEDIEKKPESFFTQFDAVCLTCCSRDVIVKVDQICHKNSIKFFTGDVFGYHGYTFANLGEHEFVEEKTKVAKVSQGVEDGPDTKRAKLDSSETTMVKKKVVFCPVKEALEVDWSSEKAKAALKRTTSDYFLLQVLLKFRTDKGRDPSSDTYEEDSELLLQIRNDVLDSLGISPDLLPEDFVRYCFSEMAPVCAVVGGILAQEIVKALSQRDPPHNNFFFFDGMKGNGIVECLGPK
UniProt Q9UBT2, whole entry: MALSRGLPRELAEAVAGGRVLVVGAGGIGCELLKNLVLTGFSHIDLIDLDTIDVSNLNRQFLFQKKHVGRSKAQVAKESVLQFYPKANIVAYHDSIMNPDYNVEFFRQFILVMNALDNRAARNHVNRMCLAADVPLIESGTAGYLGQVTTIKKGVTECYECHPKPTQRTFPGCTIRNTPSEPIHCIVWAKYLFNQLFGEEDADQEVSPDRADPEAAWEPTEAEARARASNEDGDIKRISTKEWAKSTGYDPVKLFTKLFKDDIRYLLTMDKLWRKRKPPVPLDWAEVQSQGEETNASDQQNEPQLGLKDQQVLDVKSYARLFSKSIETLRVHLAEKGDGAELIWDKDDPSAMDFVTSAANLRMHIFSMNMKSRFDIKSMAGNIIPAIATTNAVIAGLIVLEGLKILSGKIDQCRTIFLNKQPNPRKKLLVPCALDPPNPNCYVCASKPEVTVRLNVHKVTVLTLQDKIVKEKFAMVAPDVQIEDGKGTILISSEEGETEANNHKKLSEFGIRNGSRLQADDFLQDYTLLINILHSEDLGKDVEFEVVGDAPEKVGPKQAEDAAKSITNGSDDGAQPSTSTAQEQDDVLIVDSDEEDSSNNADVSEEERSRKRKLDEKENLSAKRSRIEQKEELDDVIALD

One assay has as its target SAE1 (Homo sapiens (Human), UniProt Q9UBE0+Q9UBT2). In words: SAE High Throughput Biochemical Assay (HTRF), 15 min preincubation. The settings on record: read-out: 15 min preincubation HTRF IC50 (μM) Ave, SAE1 12.5 nM, ATP 100 μM. In general terms: Time-resolved FRET reads energy transfer from a long-lived donor to a nearby acceptor.
The test system of assay [1] is sumoylation levels (SUMO 2/3 conjugates) in HCT-116 cells. In words: HCT-116 4 Hour Cell Assay (Western, SUMO 2/3 conjugates). The settings on record: read-out: HCT-116 Western 4 h IC50 (μM) Ave, 4 h treatment, Anti-Sumo 2-3 immunoblot. How it is done: This protocol describes the procedures used to assess the effects of compounds of interest on sumoylation levels. Immunoblot of SUMO 2/3 conjugates are performed and IC50 curves are generated upon quantification of sumoylations bands. HCT-116 cells are seeded in a 12 well plate (500,000 cells/well). The following day the cells are treated with compounds of interest (resuspended in DMSO) for 4 hours (11 concentrations with a three-fold dilution; starting concentration 25 μM) Following 4 hours of incubation the cells are washed with ice cold PBS 1×and protein extraction is performed with RIPA buffer supplemented with phosphatases and proteases inhibitors, 25 mM of NEM and 50 units/mL of Benzonase. Samples undergo centrifugation at 13,000 RPM, 4° C., for 10 minutes and the supernatant is collected. Protein quantification is performed using BCA. Non-Reducing Laemmli Buffer is added to the samples. Samples are heated at 75° C. for 10 minutes, and are centrifuged for 3 minutes at 9000 RPM Nupage 4-12% Bis Tris gels and 1× MOPS buffer (Fisher Scientific)+1× NuPAGE Antioxidant (Invitrogen) are used to perform the SDS-PAGE gel electrophoresis (20 to 40 μg of proteins are loaded in the gels). Proteins are then transferred to PVDF membranes and the level of total proteins are measured by staining with Revert Total Protein Stain and the fluorescent bands are acquired using the LI-COR FC (700 nm for 1 min) Membranes are blocked for 5 minutes with Bio-Rad Blocking Buffer and are subsequently incubated over night at 4° C. with Anti-Sumo 2-3 mAb (M BL #M114-3, 1:1000 in Bio-Rad Blocking Buffer, 0.2% Tween 20) Membranes are washed with 1×TBS-T (3 times for 5 minutes) and sumoylation is detected using Li-cor IRDye 800CW Goat anti-Mouse IgG secondary antibody (1:10,000 dilution) upon 1 hour of incubation in blocking buffer with 0.2% Tween 20 and 0.01% SDS. After the incubation, the membranes are washed with 1×TBS-T (3 times for 5 minutes). […] Sumoylation levels are quantified upon normalization with total protein levels, using the LI-COR Image Studio Lite 5.2 Software.
For orientation: A western blot detects proteins with antibodies after separation by electrophoresis.

As usually defined, the IC50 is the concentration that inhibits the measured activity by half. For the compound `CCn1cc(-c2c(F)cccc2[C@@H]2CN(C(=O)/C=C/CNC3CN(C(C)=O)C3)Cc3sc(C#N)cc32)c(C(F)(F)F)n1`, the IC50 is 0.97 µM on SAE1 and over 25 µM in assay [1].

Turning to `CCn1cc(-c2c(F)cccc2[C@@H]2CN(C(=O)/C=C/CNC3CC(F)(F)C3)Cc3sc(C#N)cc32)c(C(F)(F)F)n1`, the concentration for half-maximal inhibition (IC50) stood at 4.79 µM at SAE1 and 2.06 µM in assay [1].

With `CCn1cc(-c2ccccc2C2CN(C(=O)/C=C/CN(C)C)Cc3sc(C#N)cc32)c(C(F)(F)F)n1` (stereo not drawn), the IC50 on SAE1 was found to be 4.12 µM; in assay [1] it was 0.444 µM.
